Data as given in PubChem BioAssay AID1001 (Sanford-Burnham Center for Chemical Genomics, 2008).
The other results are listed elsewhere or left out. Potency and affinity values are given separately. Calls of active or inactive are those of the source. How the calls were made is not given here.

Amino acid sequences for entries named in this document (tags omitted). A change or cut given only in a name is not applied to a line headed by its entry.
UniProt P05186: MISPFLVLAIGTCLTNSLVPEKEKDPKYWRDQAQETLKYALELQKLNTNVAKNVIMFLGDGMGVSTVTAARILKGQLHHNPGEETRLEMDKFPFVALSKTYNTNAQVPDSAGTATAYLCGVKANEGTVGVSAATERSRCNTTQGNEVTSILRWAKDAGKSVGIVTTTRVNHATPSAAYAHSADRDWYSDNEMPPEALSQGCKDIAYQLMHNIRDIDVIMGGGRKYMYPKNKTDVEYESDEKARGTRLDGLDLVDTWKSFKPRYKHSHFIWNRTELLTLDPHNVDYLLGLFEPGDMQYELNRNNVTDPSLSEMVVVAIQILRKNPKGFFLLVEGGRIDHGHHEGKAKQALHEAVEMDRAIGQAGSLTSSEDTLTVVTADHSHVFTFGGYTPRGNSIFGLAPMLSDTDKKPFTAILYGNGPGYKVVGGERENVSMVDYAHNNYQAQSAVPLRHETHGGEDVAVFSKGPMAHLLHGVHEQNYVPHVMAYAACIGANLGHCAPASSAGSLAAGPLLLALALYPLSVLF

Target: Alkaline phosphatase, tissue-nonspecific isozyme (Homo sapiens) (UniProt P05186)
Assay: stimulation of alkaline phosphatase TNAP activity – biochemical, luminescent, no phosphate acceptor, uHTS, primary screen (AID 1001)
Settings: purified TNAP, luminescent activation assay, at 20 µM, hits give high values

Row | Structure (SMILES) | activation fold
1 | COP1(=S)c2c(C)nn(CCC#N)c2N=C(c2ccc(F)cc2)N1C (stereo unspecified) | inactive: 1
2 | CCC(C)N(CC(C)C)C(=S)SC(NC(C)=O)C(Cl)(Cl)Cl (stereo unspecified) | inactive: 0.9
3 | Cc1cc(SC(NC(=O)c2ccccc2)C(Cl)(Cl)Cl)nc(C(C)C)n1 (stereo unspecified) | inactive: 1.3
4 | Cc1cc(SC(NC=O)C(Cl)(Cl)Cl)ncn1 (stereo unspecified) | inactive: 1
5 | O=[N+]([O-])c1cc([N+](=O)[O-])c(-c2ccn[nH]2)s1 | inactive: 0.9
6 | ClCCSc1nnc(-c2cccnc2)o1 | inactive: 1
7 | COc1ccc2nc(NP(=O)(c3ccccc3)c3ccccc3)sc2c1 | inactive: 1.2
8 | Cc1c2c(nc3ccccc13)SC(C(Cl)Cl)C2 (stereo unspecified) | inactive: 1
9 | Cc1cc(=O)[nH]c(N[N+](=O)[O-])n1 | inactive: 1
10 | COc1cc(C2NCCC3(OCCO3)C2(C)C)cc(OC)c1OC (stereo unspecified) | inactive: 1.2
11 | CCOP(=O)(Nc1cccc2ccccc12)OCC | inactive: 1
12 | Cc1ccc(NCCc2c([N+](=O)[O-])cc([N+](=O)[O-])cc2[N+](=O)[O-])cc1 | inactive: 1
13 | O=P(Nc1nccs1)(Oc1ccccc1)Oc1ccccc1 | inactive: 1
14 | CC1CCC(C(C)C)C(OP(=O)(Nc2ccccn2)c2ccccc2)C1 (stereo unspecified) | inactive: 1.2
15 | O=P1(Nc2ncccn2)COc2ccccc2OC1 | inactive: 0.9
16 | O=P1(Nc2ccccn2)COc2ccccc2OC1 | inactive: 1
17 | CC(C)/C=N\N=C(\N)N[N+](=O)[O-] | inactive: 1
18 | CC(C)C(=O)NC(Sc1ccccc1)C(Cl)(Cl)Cl (stereo unspecified) | inactive: 1
19 | O=P(Nc1ccccn1)(c1ccc(Br)cc1)c1ccc(Br)cc1 | inactive: 1
20 | CC(=O)NC(SC(=S)N(C)C)C(Cl)(Cl)Cl (stereo unspecified) | inactive: 1
21 | c1ccc(-c2nn[nH]n2)c(-c2nn[nH]n2)c1 | inactive: 1

Row | Structure (SMILES) | activation fold
22 | CCOC(=O)NC(Sc1ccccc1)C(Cl)(Cl)Cl (stereo unspecified) | inactive: 1
23 | O=C(NC1CCS(=O)(=O)C1)NP(=S)(Oc1ccccc1)Oc1ccccc1 (stereo unspecified) | inactive: 1.2
24 | O=c1c2cc([N+](=O)[O-])ccc2[nH]c2c([N+](=O)[O-])cc([N+](=O)[O-])cc12 | inactive: 0.7
25 | CCC(=O)N1C2C3N(C(=O)CC)C1C1N(C(=O)CC)C(C(N1C(=O)CC)N3C(=O)CC)N2C(=O)CC | inactive: 1
26 | CC(=O)NC(SC(=S)N(CC(C)C)CC(C)C)C(Cl)(Cl)Cl (stereo unspecified) | inactive: 0.9
27 | CC(C)(C)C(=O)NC(Sc1ccccc1)C(Cl)(Cl)Cl (stereo unspecified) | inactive: 1
28 | CC(=O)Nc1ccc(Oc2c([N+](=O)[O-])cc([N+](=O)[O-])cc2[N+](=O)[O-])cc1 | inactive: 1
29 | Clc1ccc(Cl)c(NC2=NCC(CBr)S2)c1 (stereo unspecified) | inactive: 1.3
30 | NC(=O)c1cc([N+](=O)[O-])cc([N+](=O)[O-])c1N | inactive: 1
31 | O=C(NC(Sc1ccncn1)C(Cl)(Cl)Cl)c1ccccc1 (stereo unspecified) | inactive: 1.2
32 | Cc1c2non([O-])c-2c(C)[n+](=O)[n+]1[O-] | inactive: 1
33 | CC(C)CC(=O)NC(Sc1ccc(Cl)cc1)C(Cl)(Cl)Cl (stereo unspecified) | inactive: 0.9
34 | Cc1cc(SC(NC(=O)c2ccc(F)cc2)C(Cl)(Cl)Cl)ncn1 (stereo unspecified) | inactive: 1
35 | CCOP(=O)(Nc1ccccc1)OCC | inactive: 1
36 | CCN(N=Nc1nonc1N)c1nonc1N | inactive: 1
37 | Cc1ccc(NP(=O)(Oc2ccccc2)Oc2ccccc2)nc1 | inactive: 1
38 | O=[N+]([O-])c1cc([N+](=O)[O-])c(CCNc2ccccc2)c([N+](=O)[O-])c1 | inactive: 1
39 | CC(=O)N1C2C3N(C(C)=O)C1C1N(C(C)=O)C(C(N1C(C)=O)N3C(C)=O)N2C(C)=O | inactive: 1
40 | COc1ccc(C2=NCC(CBr)S2)cc1 (stereo unspecified) | inactive: 1
41 | CC1CCN(C(=O)Oc2c(Cl)cc(Cl)c3cccnc23)CC1 | inactive: 1
